# Results: patent US11427556B2, “Urea derivatives as inhibitors of ASK1” (Hepagene Therapeutics (HK) Limited, priority 2017, dated 2022)
# By UniProt entry, the sequences of proteins in these tests, tags left out.
# UniProt Q99683, whole entry: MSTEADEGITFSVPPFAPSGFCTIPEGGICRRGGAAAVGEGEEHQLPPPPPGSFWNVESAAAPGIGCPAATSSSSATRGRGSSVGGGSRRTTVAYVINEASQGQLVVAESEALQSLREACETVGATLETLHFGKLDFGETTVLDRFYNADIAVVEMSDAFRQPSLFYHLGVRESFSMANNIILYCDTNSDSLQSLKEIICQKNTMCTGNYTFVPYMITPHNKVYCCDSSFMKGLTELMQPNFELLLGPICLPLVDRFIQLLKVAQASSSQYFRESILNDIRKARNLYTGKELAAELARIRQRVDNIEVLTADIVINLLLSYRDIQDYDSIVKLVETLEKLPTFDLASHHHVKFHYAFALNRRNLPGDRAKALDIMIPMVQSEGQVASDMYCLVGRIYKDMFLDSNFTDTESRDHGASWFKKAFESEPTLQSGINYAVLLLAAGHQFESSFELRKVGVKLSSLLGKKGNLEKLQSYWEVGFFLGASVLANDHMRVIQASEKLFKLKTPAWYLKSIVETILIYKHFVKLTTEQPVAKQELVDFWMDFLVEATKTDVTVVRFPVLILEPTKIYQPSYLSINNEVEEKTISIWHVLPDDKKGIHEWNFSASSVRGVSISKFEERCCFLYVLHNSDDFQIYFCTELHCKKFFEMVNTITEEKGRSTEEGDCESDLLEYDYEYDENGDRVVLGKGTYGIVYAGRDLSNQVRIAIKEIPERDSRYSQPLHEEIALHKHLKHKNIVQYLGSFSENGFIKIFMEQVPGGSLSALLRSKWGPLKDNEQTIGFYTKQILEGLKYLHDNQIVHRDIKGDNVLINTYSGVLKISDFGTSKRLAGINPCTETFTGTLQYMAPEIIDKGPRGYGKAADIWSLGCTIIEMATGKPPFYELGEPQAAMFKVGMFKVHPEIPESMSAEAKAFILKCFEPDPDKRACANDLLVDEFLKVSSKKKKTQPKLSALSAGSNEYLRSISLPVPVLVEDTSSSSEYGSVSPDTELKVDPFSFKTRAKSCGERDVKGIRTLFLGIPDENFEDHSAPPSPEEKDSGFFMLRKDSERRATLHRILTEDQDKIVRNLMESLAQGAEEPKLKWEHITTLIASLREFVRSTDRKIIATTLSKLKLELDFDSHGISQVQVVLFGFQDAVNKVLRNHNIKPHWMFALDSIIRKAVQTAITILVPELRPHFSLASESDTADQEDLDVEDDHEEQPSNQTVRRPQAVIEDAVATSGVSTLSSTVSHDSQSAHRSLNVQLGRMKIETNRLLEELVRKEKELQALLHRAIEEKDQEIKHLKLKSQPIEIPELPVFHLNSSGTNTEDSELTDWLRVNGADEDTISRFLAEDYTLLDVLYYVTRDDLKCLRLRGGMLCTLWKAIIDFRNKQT
# Target: Recombinant human ASK1 kinase (Homo sapiens, UniProt Q99683)
# Assay: ASK1 kinase HTRF assay (HTRF KinEASE-STK, phosphorylation of biotinylated peptide substrate)
# Settings: 3 nM ASK1 kinase, 1 uM STK-substrate-biotin, HTRF detection
row,SMILES,EC50
1,CC(C)n1cnnc1-c1cccc(NC(=O)Nc2ccc(S(C)(=O)=O)cn2)n1,< 50 nM
2,CC(C)n1cnnc1-c1cccc(NC(=O)Nc2nc3ccccc3s2)n1,< 50 nM
3,CC(C)n1cnnc1-c1cccc(NC(=O)Nc2cc(C(F)(F)F)ccn2)n1,< 50 nM
